# Results taken from patent publication US11116741B2, “Method for the treatment of valvular heart disease comprising administering a composition comprising sarpogrelate” (CEVA SANTE ANIMALE, priority 2017, dated 2021).
# Experiment: Body weight, food intake, water intake, systolic blood pressure and heart rate in the NdF mouse model
# Assay type: in vivo, mice
# Protocol: Before the start of the experiment, baseline systolic blood pressure, heart rate and body weight were measured. After this step, mice were subcutaneously implanted a mini-osmotic pump (Alzet® 1004) delivering either NdF dissolved in sterile water at 1 mg/kg/day or sterile water (vehicle) for 28 days. The dose of sarpogrelate administered was 2 mg/kg/day. The experiment started two days after the subcutaneous implantation so as to allow the activation of the mini-osmotic pump. Systolic blood pressure, heart rate and body weight were measured each week until the end of the experiment. At the term (day 28), urinary samples were collected from mice to determine 5-hydroxy-indol acetic acid concentration (5-HIAA which is a serotonin metabolite). NdF induces the release of serotonin, therefore increasing urinary 5-HIAA.
# Measures of body weight (Table 3), food intake (Table 4), water intake (Table 5), systolic blood pressure (Table 6), heart rate (Table 7), effect of sarpogrelate on the cellularity (tables 8-9) and effect of sarpogrelate on reduction of mitral valve thickness (table 10) are shown below.
compound,measurement,setting,value
"C[C@H](N)Cc1cccc(C(F)(F)F)c1 [NdF, nordexfenfluramine]",Body weight,Week 2,26.7 g
same,Systolic blood pressure,Week 3,105.6 mmHg
